{"source": "patent US20170202973A1", "about": "(GENENTECH, INC., priority 2009, published 2017)", "key": {"[1]": {"details": "earlier Phase II, […] every 3 weeks; cited from earlier work"}, "[2]": {"details": "Phase I, cited from earlier work"}, "[3]": {"details": "T-DM1 conjugate, […] IV every 3 weeks"}, "[4]": {"details": "of 110 treated, 70 discontinued, data cutoff"}}, "note": "Like-named read-outs stand apart in the source and are kept apart here.", "data": [{"substance": "trastuzumab-MCC-DM1 [T-DM1]", "values": [{"measurement": "patients requiring dose reduction", "setting": "[1]", "result": "3 out of 112"}, {"measurement": "Number of Patients with Dose Reductions to 2.4 mg/kg", "setting": "110 patients, initial analysis", "result": 6, "unit": "patients"}, {"measurement": "Number of Patients with Dose Reductions to 3.0 mg/kg", "setting": "110 patients, initial analysis", "result": 11, "unit": "patients"}, {"measurement": "Number of Patients with Dose Reductions to 2.4 mg/kg", "setting": "110 patients, updated analysis", "result": 7, "unit": "patients"}, {"measurement": "patients who died from hepatic dysfunction", "setting": "110 treated patients", "result": "One"}, {"measurement": "dose-limiting cardiotoxicity or new safety signals", "setting": "at the dose and schedule tested", "result": "no dose-limiting cardiotoxicity or new safety signals"}, {"measurement": "Reason for Dose Reduction: Grade 1 AST", "setting": "count in footnote of Table 3", "result": 1}, {"measurement": "Reason for Dose Reduction: Grade 2 AST", "setting": "count in footnote of Table 3", "result": 1}, {"measurement": "Reason for Dose Reduction: Grade 2 AST + ALT", "setting": "count in footnote of Table 3", "result": 3}, {"measurement": "Reason for Dose Reduction: Grade 2 Leukopenia", "setting": "count in footnote of Table 3", "result": 2}, {"measurement": "Reason for Dose Reduction: Grade 2 Thrombocytopenia", "setting": "count in footnote of Table 3", "result": 1}, {"measurement": "Reason for Dose Reduction: Grade 3 AST Elevation", "setting": "count in footnote of Table 3", "result": 1}, {"measurement": "Reason for Dose Reduction: Grade 3 Elevation AST + ALT", "setting": "count in footnote of Table 3", "result": 2}, {"measurement": "Reason for Dose Reduction: Grade 4 Thrombocytopenia", "setting": "count in footnote of Table 3", "result": 1}, {"measurement": "patients that discontinued treatment with one or more adverse events, %", "setting": "[4]", "result": 5.5, "unit": "%"}, {"measurement": "patients that discontinued treatment with one or more adverse events, number", "setting": "[4]", "result": 6, "unit": "patients"}, {"measurement": "maximum tolerated dose (MTD)", "setting": "[2]; IV infusion every 3 weeks", "result": 3.6, "unit": "mg/kg"}, {"measurement": "DLT: patients with Grade 4 thrombocytopenia", "setting": "[2]; treated at 4.8 mg/kg", "result": "2 of 3"}, {"measurement": "Clearance (CL)", "setting": "[3]", "result": 8.3, "unit": "mL/day/kg"}, {"measurement": "terminal halflife (t½)", "setting": "[3]", "result": 96, "unit": "h"}]}]}
